Measured values published in ChEMBL document CHEMBL1132844, “Assessment of substitution in the second pharmacophore of Dmt-Tic analogues” (Bioorg Med Chem Lett, 2000).

Protein sequences, listed by entry. Tags and fused reporters are not part of them.
UniProt P32300, whole entry: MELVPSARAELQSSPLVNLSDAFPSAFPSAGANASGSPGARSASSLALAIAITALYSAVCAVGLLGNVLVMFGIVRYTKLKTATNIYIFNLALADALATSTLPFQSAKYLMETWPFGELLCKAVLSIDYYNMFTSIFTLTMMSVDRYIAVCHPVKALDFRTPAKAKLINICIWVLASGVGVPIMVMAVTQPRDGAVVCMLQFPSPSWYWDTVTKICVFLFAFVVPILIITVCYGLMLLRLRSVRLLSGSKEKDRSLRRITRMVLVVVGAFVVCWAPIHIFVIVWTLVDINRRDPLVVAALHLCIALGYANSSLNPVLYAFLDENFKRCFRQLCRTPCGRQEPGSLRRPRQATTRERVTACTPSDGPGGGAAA

Target: Delta-type opioid receptor (Mus musculus, UniProt P32300)

`CC(C)[C@H](NC(=O)[C@H](CC(=O)O)NC(=O)[C@H](Cc1ccccc1)NC(=O)[C@@H](C)NC(=O)[C@@H](N)Cc1ccc(O)cc1)C(=O)N[C@H](C(=O)NCC(N)=O)C(C)C` [DELTORPHINE II] gave an EC50 of 0.331 nM.
